The numbers were not newly measured in article PMC8995271 (Targeted Oncology, 2022), which cites them from elsewhere.

The subject of this data set is HER1. As to conditions: read-out: half maximal inhibitory concentration for inhibiting the phosphorylation of HER1; ref [17], [23]–[26]; cited from earlier work.

On to `CS(=O)(=O)CCNCc1ccc(-c2ccc3ncnc(Nc4ccc(OCc5cccc(F)c5)c(Cl)c4)c3c2)o1` [lapatinib], for which the IC50 was 0.0108 µM.
